# scFv variants of Ab-95 (light chain) against a SARS-CoV-2 spike peptide

Data: MIT Lincoln Laboratory AlphaSeq set, Engelhart et al. 2022, doi:10.1038/s41597-022-01779-4, as distributed in FLAb.

Target peptide (SARS-CoV-2 spike, HR2 region): PDVDLGDISGINAS

Parent scFv Ab-95: VH joined to VL by three GGGGS repeats. Changes lie in the light chain CDRs alone.
VH: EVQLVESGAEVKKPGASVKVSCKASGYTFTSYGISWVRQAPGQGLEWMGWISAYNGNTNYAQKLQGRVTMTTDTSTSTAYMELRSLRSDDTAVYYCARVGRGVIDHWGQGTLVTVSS
VL: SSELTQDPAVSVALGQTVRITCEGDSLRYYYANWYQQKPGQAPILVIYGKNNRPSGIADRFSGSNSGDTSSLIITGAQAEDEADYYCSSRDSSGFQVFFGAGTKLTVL

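The parent was found by panning a naive human phage display library on the peptide. Library AAYL52 holds single substitutions and randomly drawn double and triple substitutions in the CDRs. In AlphaSeq, yeast of one mating type display the scFv and yeast of the other type display the target. The frequency of each diploid, read from paired DNA barcodes, reflects how well the two displayed proteins bind. Scores were corrected for input abundance and mapped to Kd with protein pairs of known affinity run in the same pool. Mating was done three times.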

Positions count from residue 1 of the parent VL; Y29I puts I in place of Y.
Numbers give log10(Kd / nM), so 0 is 1 nM and 3 is 1 µM. Smaller is tighter.
Where no diploid with the target was found in that replicate, the entry reads "nd": below detection, most likely a poor binder, though not proof of it.
For reference, the parent read 2.31 as the reference entry and 2.25 as a member of this library.

| changes | log10 Kd (nM) by replicate | signal with controls |
|---|---|---|
| Y29I/S92H/Q96M | 4.39 3.28 4.03 | 4 of 9 (3.76) |
| G24W/N33G/S92W | 3.78 2.22 nd | 3 of 9 (3.43) |
| R28W/K50V/F98S | 4.05 nd 3.45 | 4 of 9 (3.26) |
| S26C/S88R/Q96V | 5.41 3.93 nd | 3 of 9 (3.56) |
| G24L/Y30D/F98M | 2.14 2.12 2.25 | 4 of 9 (4.12) |
| S89F/R90T/S92M | 3.05 3.01 3.81 | 4 of 9 (3.68) |
| G49F/K50Q/S55G | 3.73 nd 3.81 | 3 of 9 (3.33) |
| A32I/P54T/F95H | nd nd 2.68 | 1 of 9 (5.27) |
| S89V/R90S/V97G | 3.50 2.72 nd | 2 of 9 (3.47) |
| G24F/A32R/S92K | 4.46 nd 4.54 | 4 of 9 (4.03) |
| A32L/G94Y/F98A | 3.59 nd nd | 6 of 9 (3.51) |
| L27C/R90F | nd nd nd | 4 of 9 (4.17) |
| E23N/G49F/P54G | 4.72 5.78 nd | 1 of 9 (3.93) |
| E23H/Y30W/R53L | 3.43 3.76 nd | 2 of 9 (3.27) |
| A32C/S89Y/R90P | nd nd 3.65 | 2 of 9 (3.07) |
| R28H/Y29S/G94S | nd nd 3.19 | 2 of 9 (3.92) |
| P54T/S55L | 3.11 4.42 3.13 | 2 of 9 (4.06) |
| G24H/N51E/N52I | nd 4.22 nd | 2 of 9 (3.40) |
| D25S/S55R | 1.87 2.50 1.86 | 4 of 9 (3.51) |
| Y31P/G49L/S88Q | 3.97 3.24 3.95 | 1 of 9 (3.03) |
| G24N/S26Q/F98W | nd nd nd | 0 of 9 |
| S26W/R53Q/Q96S | nd 4.14 4.19 | 5 of 9 (3.81) |
| G49W/S55T/G94W | nd nd nd | 5 of 9 (3.62) |
| Y29A/N33Q | 3.24 3.70 4.73 | 7 of 9 (3.87) |
| D25S/N51K/F95G | nd 4.46 nd | 2 of 9 (3.82) |
| K50S/P54E/S88T | 3.44 nd nd | 3 of 9 (2.91) |
| L27Y/N51R/Q96N | nd nd nd | 1 of 9 (4.90) |
| D25I/G49V/R90A | 4.88 nd 3.55 | 3 of 9 (4.18) |
| G24P/S89P/F98I | nd nd nd | 1 of 9 (5.31) |
| N33I/D91F/G94M | 3.22 3.29 nd | 3 of 9 (4.24) |
| K50Y/R90V/V97Y | 2.69 4.22 3.93 | 4 of 9 (3.83) |
| R28I/Y31V/K50M | 4.55 nd 4.16 | 2 of 9 (3.97) |
| K50D/R53E/F98M | nd 3.65 nd | 3 of 9 (3.78) |
| L27S/S89M/D91I | 3.79 4.61 3.65 | 7 of 9 (4.09) |
| R90H/D91S/Q96H | 3.66 3.69 nd | 0 of 9 |
| S26C/V97F/F98H | 2.42 2.20 1.28 | 3 of 9 (3.94) |
| N52W/S88L/D91K | 3.45 4.40 nd | 3 of 9 (4.29) |
| S88Q/G94F/V97D | 3.52 2.81 3.08 | 1 of 9 (4.19) |
| D25P/N33R/F95S | nd 4.24 nd | 2 of 9 (3.83) |
| R53A/S55M/S93A | 3.09 3.45 4.10 | 3 of 9 (3.82) |
| G24F/D25R/G94V | nd 4.69 3.58 | 2 of 9 (3.84) |
| G49Q | 3.75 4.68 3.38 | 5 of 9 (4.38) |
| R28T/S89G/D91S | 2.53 2.68 2.13 | 2 of 9 (4.12) |
| R53P/D91C/S93I | 4.22 3.68 nd | 2 of 9 (3.77) |
| N33A/G49K/N52E | 3.80 nd nd | 2 of 9 (3.32) |
| S26V/S55W/G94Q | 2.82 3.58 nd | 0 of 9 |

The first 5 variants above that were never detected:

changes,log10 Kd (nM) by replicate,signal with controls
L27C/R90F,nd nd nd,4 of 9 (4.17)
G24N/S26Q/F98W,nd nd nd,0 of 9
G49W/S55T/G94W,nd nd nd,5 of 9 (3.62)
L27Y/N51R/Q96N,nd nd nd,1 of 9 (4.90)
G24P/S89P/F98I,nd nd nd,1 of 9 (5.31)

Nonspecific signal, from three strains lacking the peptide, appeared in 28% of pairings of library AAYL52, centred on 3.91 (5% of these signals below 2.90); values are not corrected for it. The control count says in how many pairings with the empty strains this scFv gave a signal, with their mean in brackets.